Results taken from patent US20210061861A1, “D-PEPTIDIC COMPOUNDS FOR VEGF” (Reflexion Pharmaceuticals, Inc., priority 2019, published 2021).
Positions count from the first letter of the chain named.

By UniProt entry, the sequences of proteins in these tests, tags left out. Residues count along the entry.
UniProt P15692, 214-315 limits assumed: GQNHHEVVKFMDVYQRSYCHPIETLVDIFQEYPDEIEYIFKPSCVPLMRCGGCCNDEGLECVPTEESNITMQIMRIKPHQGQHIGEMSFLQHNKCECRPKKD

B1: 979102 (designed binder)
chain: FNIQWICKNAKEDAIAELKKAGITEPHVISFINHAPSCSHVNGLKNAILKAHA
modifications: all residues D-amino acids (Gly achiral); c7-c38 disulfide
B2: 979107 (designed binder)
chain: B1 chain with F1I, N2P, I6V
modifications: all residues D-amino acids (Gly achiral); c7-c38 disulfide
B3: 979108 (designed binder)
chain: B1 chain with F1P, N2S, I3V
modifications: all residues D-amino acids (Gly achiral); c7-c38 disulfide
B4: 979109 (designed binder)
chain: B1 chain with F1R, I6V, S37N
modifications: all residues D-amino acids (Gly achiral); c7-c38 disulfide

molecular target: L-VEGF-A (8-109) (Homo sapiens (Human)) (UniProt P15692); assay: SPR per Examples 7, 8, 11 (method not named in Table 4)

Row | Binder | Kd [nM]
1 | B1 | 5.2
2 | B2 | 5.2
3 | B3 | 5.8
4 | B4 | 3.7
